Data published in ChEMBL document CHEMBL3621132, “Discovery of diazepane amide DORAs and 2-SORAs enabled by exploration of isosteric quinazoline replacements” (Bioorg Med Chem Lett, 2015).

How the values were obtained:
Orexin receptor type 2 = Orexin receptor type 2 (Homo sapiens, UniProt O43614); experiment: Binding affinity to human orexin 2 receptor expressed in CHO cells after 3 hrs by radioligand binding assay
Homo sapiens = species on record: Homo sapiens; experiment: Selectivity ratio of IC50 for human orexin 1 receptor Ile408-Val mutant to IC50 for human orexin 2 receptor
Liver microsome [1] = experiment: Bioactivation of compound in human liver microsomes assessed as AUC of GSH-adduct formation at 10 uM after 60 mins by HRMS analysis relative to labetalol; conditions: 1 h
Liver microsome [2] = experiment: Bioactivation of compound in rat liver microsomes assessed as AUC of GSH-adduct formation at 10 uM after 60 mins by HRMS analysis relative to labetalol; conditions: 1 h
P-glycoprotein [3] = experiment: Permeability of the compound assessed as human p-glycoprotein-mediated permeability ratio from basolateral to apical direction; assay type: ADME; conditions: not told
P-glycoprotein [4] = experiment: Permeability of the compound assessed as rat p-glycoprotein-mediated permeability ratio from basolateral to apical direction; assay type: ADME; conditions: not told

Row | SMILES | Ki (Orexin receptor type 2) | Ratio IC50 (Homo sapiens) | other results
1 | Cc1ccc(-n2nccn2)c(C(=O)N2CCN(c3ncc(Cl)c(C)n3)CC[C@H]2C)c1 | 600 pM |  | 
2 | C[C@@H]1CCN(c2ncc(C(F)(F)F)c(Cl)n2)CCN1C(=O)c1ccccc1-n1nccn1 | 700 pM |  | 
3 | Cc1ncc(C)c(N2CC[C@@H](C)N(C(=O)c3ccccc3-n3nccn3)CC2)n1 | 12000 pM | > 122 | 
4 | C[C@@H]1CCN(c2nc(Cl)ncc2C(F)(F)F)CCN1C(=O)c1ccccc1-n1nccn1 | 7700 pM | > 139 | 
5 | COc1nc(N2CC[C@@H](C)N(C(=O)c3cc(C)ccc3-n3nccn3)CC2)ncc1C(F)(F)F | 400 pM |  | Ratio (Liver microsome [1]): 0.5; Ratio (Liver microsome [2]): 0.4; efflux ratio (P-glycoprotein [3]): 0.7; efflux ratio (P-glycoprotein [4]): 1.2
6 | Cc1ncc(C(F)(F)F)c(N2CC[C@@H](C)N(C(=O)c3ccccc3-n3nccn3)CC2)n1 |  | > 114 | 
7 | Cc1cnc(Cl)nc1N1CC[C@@H](C)N(C(=O)c2ccccc2-n2nccn2)CC1 |  | 62 | 
8 | C[C@@H]1CCN(c2nc(Cl)ncc2Cl)CCN1C(=O)c1ccccc1-n1nccn1 |  | 128 | 
9 | Cc1nc(N2CC[C@@H](C)N(C(=O)c3ccccc3-n3nccn3)CC2)ncc1C(F)(F)F | 500 pM |  | 
10 | Cc1ncc(Cl)c(N2CC[C@@H](C)N(C(=O)c3ccccc3-n3nccn3)CC2)n1 |  | > 208 | 
